Earlier results on one substance are cited in patent US20140030311A1, “MONOLITHIC INTRAVAGINAL RINGS COMPRISING PROGESTERONE AND METHODS OF MAKING AND USES THEREOF” (TEVA WOMEN'S HEALTH, INC., priority 2009, published 2014).

The data set relates to IVF cycles. As to conditions: luteal phase support in IVF cycles; Soliman et al. 1994; cited from earlier work.

For the substance “hCG: human chorionic gonadotropin, used for luteal phase support”, the “pregnancy rates versus placebo” value was “significantly higher pregnancy rates than placebo”.
